Results published in patent US11447470B2, “Pyrimidinone-containing compound, preparation method thereof, pharmaceutical composition and application thereof” (YUNNAN UNIVERSITY, priority 2018, dated 2022).

Test: Cytotoxicity experiment (MTT method) on C8166 cells
Format: cell-based
Settings: human; C8166 cells in vitro
Protocol: C8166 cells infected with HIV-1 were used for determining the anti-HIV biological activity at the cellular level. The specific method was described below.
Cytotoxicity experiment: The toxicity of the compounds on C8166 cells was determined by MTT method. In 96-well cell culture plates, the compounds were subjected to 5-fold serial dilution and 100 μL of C8166 cell suspension (4×10^5/mL) was added into each well. Triplicate wells were set for each concentration. […] The cells were incubated at 37° C. in a 5% CO2 incubator for three days, followed by the addition of MTT solution into each well, and then the cells were incubated at 37° C. for 4 hours. 10% SDS-50% DMF was added into each well and the cells were incubated at 37° C. in a 5% CO2 incubator overnight. After mixing evenly, the OD values were measured by BIO-TEK ELx800 ELISA instrument (determination wavelength: 570 nm; reference wavelength: 630 nm).

Which CC50 at 3 days does the source give for `CCc1c(CC2CCCCC2)nc(SCc2n[nH]c(-c3ccccc3)c2Cl)[nH]c1=O` [Compound I-01] here?
The CC50 at 3 days was greater than 200 µM.

For `CCc1c(CC2CCCCC2)nc(SCc2n[nH]c(-c3cccc(F)c3)c2Cl)[nH]c1=O` [Compound I-15], which CC50 at 3 days is on record?
The CC50 at 3 days was greater than 200 µM.

For `CCc1c(CC2CCCCC2)nc(SCc2cc(-c3ccc(OC)cc3)[nH]n2)[nH]c1=O` [Compound I-10], which CC50 at 3 days is on record?
The CC50 at 3 days was greater than 200 µM.

Which CC50 at 3 days does the source give for `CCc1c(CC2CCCCC2)nc(SCc2n[nH]c(-c3ccc(Cl)cc3)c2Cl)[nH]c1=O` [Compound I-16] here?
Its CC50 at 3 days is greater than 200 µM.

With `CCc1c(CC2CCCCC2)nc(SCc2n[nH]c(-c3ccc(C)cc3)c2Cl)[nH]c1=O` [Compound I-22] as the molecule, how does the CC50 at 3 days read?
The CC50 at 3 days was greater than 200 µM.
